Molecules are shown by their SMILES. Where only a bound is given, the exact number is not on record here.

Sequences of proteins named here, by UniProt entry; tags and fusion partners are left off. A change or cut given only in a name is not applied to a line headed by its entry.
UniProt P41145: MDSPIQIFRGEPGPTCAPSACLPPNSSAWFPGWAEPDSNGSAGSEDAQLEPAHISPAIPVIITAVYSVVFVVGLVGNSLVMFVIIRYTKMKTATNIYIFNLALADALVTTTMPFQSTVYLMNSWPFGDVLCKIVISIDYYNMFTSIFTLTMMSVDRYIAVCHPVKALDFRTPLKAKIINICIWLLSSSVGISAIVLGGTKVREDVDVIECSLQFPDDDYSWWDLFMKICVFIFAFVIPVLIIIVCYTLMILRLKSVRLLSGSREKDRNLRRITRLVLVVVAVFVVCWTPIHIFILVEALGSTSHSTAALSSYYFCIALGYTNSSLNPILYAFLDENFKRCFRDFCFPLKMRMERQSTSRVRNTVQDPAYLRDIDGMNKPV
UniProt P35372, whole entry, looked up: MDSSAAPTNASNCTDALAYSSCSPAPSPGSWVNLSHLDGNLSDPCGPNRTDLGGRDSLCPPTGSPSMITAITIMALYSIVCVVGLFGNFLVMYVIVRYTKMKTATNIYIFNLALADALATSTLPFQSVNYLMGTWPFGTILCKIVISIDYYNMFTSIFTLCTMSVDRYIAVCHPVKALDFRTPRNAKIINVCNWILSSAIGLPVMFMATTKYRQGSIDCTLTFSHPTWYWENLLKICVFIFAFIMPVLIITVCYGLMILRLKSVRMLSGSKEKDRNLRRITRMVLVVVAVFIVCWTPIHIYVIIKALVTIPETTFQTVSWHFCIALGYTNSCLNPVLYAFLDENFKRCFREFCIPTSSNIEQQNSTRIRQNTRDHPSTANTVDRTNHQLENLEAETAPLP

By Ki is commonly meant the dissociation constant of the complex between target and ligand, obtained from inhibition or displacement. Low values mean tighter binding, high ones weaker binding.

For one assay, the species on record is Rattus norvegicus. Kind of assay: Dose required to produce 50% of the maximum possible analgesic effect by using rat paw pressure analgesia assay.
Assay [1] addresses T1, Kappa-type opioid receptor (Homo sapiens, UniProt P41145). The assay is described as follows: Binding affinity towards opioid receptor kappa was determined.
The target of assay [2] is T2, Mu-type opioid receptor (Homo sapiens, UniProt P35372). The assay is described as follows: Binding affinity towards opioid receptor mu was determined.
The target of assay [3] is T1, Kappa-type opioid receptor. The assay is described as follows: Binding affinity towards Opioid receptor kappa 1 was determined.
Assay [4] addresses T2, Mu-type opioid receptor. The assay is described as follows: Binding affinity towards Opioid receptor mu 1 was determined.
Assay [5] addresses T2, Mu-type opioid receptor. The assay is described as follows: Binding affinity towards mu opioid receptor was determined.

For `CN(C(=O)Cc1cccc2occc12)[C@@H]1CCCC[C@H]1N1CCC(CO)C1.Cl` (stereo partly drawn), the MPE50 in the assay listed under Rattus norvegicus worked out at 4 mg/kg. Still for that read-out and setting: next, `CN(C(=O)Cc1ccc2sccc2c1)[C@@H]1CCCC[C@H]1N1CCCC1.Cl`: 6.1 mg/kg. Consider `CN(C(=O)Cc1cccc2sccc12)[C@@H]1CCCC[C@H]1N1CCC[C@H]1CO`, for which the Ki in assay [1] is over 1000 nM; on Mu-type opioid receptor [2] it was over 100 nM.

Compound `CN(C(=O)Cc1ccc2ccsc2c1)[C@@H]1CCCC[C@H]1N1CCCC1.Cl` showed an MPE50 in the assay filed under Rattus norvegicus of 4.6 mg/kg. In the case of `CN(C(=O)Cc1csc2ccccc12)[C@@H]1CCCC[C@H]1N1CCCC1`, the Ki came to 69 nM in assay [3] and 1400 nM at Mu-type opioid receptor [4]. Turning to `CO[C@H]1C[C@H](N(C)C(=O)Cc2cccc3sccc23)[C@@H](N2CCCC2)C[C@H]1OC.Cl`, the MPE50 in the assay listed under Rattus norvegicus turned out to be 1.5 mg/kg. In the case of `CN(C(=O)Cc1cccc2sccc12)[C@@H]1CCCC[C@H]1N1CCC(CO)C1` (stereo partly drawn), the values for the Ki (in assay [1]; at Mu-type opioid receptor [2]) were 7 nM and 560 nM, respectively. As to `O=C(Cc1cccc2sccc12)N[C@@H]1CCCC[C@H]1N1CCCC1`, the Ki is 333 nM in assay [3] and 4800 nM on Mu-type opioid receptor [5]. Regarding `CN(C(=O)Cc1cccc2ccsc12)[C@@H]1CCCC[C@H]1N1CCCC1.Cl`, the MPE50 in the assay listed under Rattus norvegicus is over 3.3 mg/kg.

`CO[C@H]1C[C@H](N(C)C(=O)Cc2cccc3occc23)[C@@H](N2CCCC2)C[C@H]1OC.Cl` returned an MPE50 in the assay listed under Rattus norvegicus of 0.8 mg/kg.

On to `CCCCCN(CCN1CCCC1)C(=O)Cc1cccc2sccc12`, for which the Ki is 2000 nM in assay [1] and 5200 nM at Mu-type opioid receptor [2].

In the case of `O=C(Cc1cccc2sccc12)N1CC2CCCN2[C@@H]2CCCC[C@H]21` (stereo partly drawn), the figures for the Ki (in assay [3]; on Mu-type opioid receptor [5]) were 28000 nM and 17500 nM, respectively. Take `CN(CCc1cccc2sccc12)[C@@H]1CCCC[C@H]1N1CCCC1`: the Ki in assay [1] was found to be 8100 nM; on Mu-type opioid receptor [2], 14300 nM. Taken in the same sequence, the figures for `CN(C(=O)Cc1cccc2sccc12)[C@@H]1CCC[C@H]1N1CCCC1` were 154 nM and 3600 nM.

With `CN(C(=O)Cc1ccc2sccc2c1)[C@@H]1CCCC[C@H]1N1CCCC1`, the Ki in assay [1] worked out at 94 nM; at Mu-type opioid receptor [2] it was 475 nM. On to `CN(C(=O)Cc1cccc2occc12)[C@@H]1CCCC[C@H]1N1CCC(CO)C1` (stereo partly drawn), for which the figures for the Ki (in assay [3]; at Mu-type opioid receptor [5]) were 17 nM and 4100 nM, respectively. Regarding `CN(C(=S)Cc1cccc2sccc12)[C@@H]1CCCC[C@H]1N1CCCC1`, the Ki in assay [3] amounted to 53 nM; on Mu-type opioid receptor [5] it was 700 nM. `O=C(Cc1cccc2sccc12)NCCN1CCCC1`: the Ki came to 25000 nM in assay [1] and 10000 nM on Mu-type opioid receptor [2].

In turn, `CN(C(=O)Cc1cccc2sccc12)[C@@H]1CCCC[C@H]1N1CCC(CO)C1.Cl` (stereo partly drawn) had an MPE50 in the assay filed under Rattus norvegicus of over 3.3 mg/kg. Turning to `CN(C(=O)Cc1ccc2ccsc2c1)[C@@H]1CCCC[C@H]1N1CCCC1`, the values for the Ki (in assay [1]; at Mu-type opioid receptor [2]) were 146 nM and 425 nM, respectively. The matching figures for `CN(C(=O)Cc1cccc2sccc12)[C@@H]1CCCC[C@H]1N1CCCC1`: 3.7 nM and 410 nM.

`Cl.O=C(Cc1cccc2sccc12)O[C@@H]1CCCC[C@H]1N1CCCC1` yielded an MPE50 in the assay filed under Rattus norvegicus of over 3.3 mg/kg. `CN(C(=O)Cc1cccc2occc12)[C@@H]1CCCC[C@H]1N1CCC(COC(=O)CCCC(=O)OCC2CCN([C@H]3CCCC[C@@H]3N(C)C(=O)Cc3cccc4occc34)C2)C1` (stereo partly drawn): the Ki was 180 nM in assay [1] and 760 nM at Mu-type opioid receptor [2]. The matching figures for `O=C(Cc1cccc2sccc12)O[C@@H]1CCCC[C@H]1N1CCCC1`: 261 nM and 3340 nM. Taken in the same sequence, the figures for `CO[C@H]1C[C@H](N(C)C(=O)Cc2cccc3sccc23)[C@@H](N2CCCC2)C[C@H]1OC` were 18 nM and 2800 nM. Take `CN(C(=O)Cc1cccc2ccsc12)[C@@H]1CCCC[C@H]1N1CCCC1`: the Ki in assay [1] is 17 nM; on Mu-type opioid receptor [2], 650 nM.

In the assay filed under Rattus norvegicus, `CN(C(=O)Cc1cccc2sccc12)[C@@H]1CCCC[C@H]1N1CCCC1.Cl` gave an MPE50 of 1.4 mg/kg. As for `CN(C(=O)Cc1cccc2sccc12)[C@@H]1CCCCC[C@H]1N1CCCC1`, the Ki in assay [3] worked out at 12 nM; at Mu-type opioid receptor [5], 1000 nM. As for `CO[C@H]1C[C@H](N(C)C(=O)Cc2cccc3occc23)[C@@H](N2CCCC2)C[C@H]1OC`, the Ki in assay [3] turned out to be 16 nM; on Mu-type opioid receptor [5], 820 nM.

On to `CN(C(=O)Cc1cccc2sccc12)[C@@H]1CCCC[C@H]1N1CCC[C@@H]1CO`, for which the Ki (in assay [1]; on Mu-type opioid receptor [2]) was over 10000 nM throughout. `CN(C(=O)Cc1csc2ccccc12)[C@@H]1CCCC[C@H]1N1CCCC1.Cl` yielded an MPE50 in the assay listed under Rattus norvegicus of 3.3 mg/kg. Turning to `CN(C(=O)Cc1cccc2[nH]ccc12)[C@@H]1CCCC[C@H]1N1CCCC1`, the Ki in assay [1] stood at 816 nM; on Mu-type opioid receptor [2], 833 nM. For `CN(Cc1cccc2occc12)C(=O)[C@@H]1CCCC[C@H]1N1CCCC1`, the Ki worked out at 37000 nM in assay [3] and 20300 nM at Mu-type opioid receptor [5].

As to `CN(C(=O)Cc1cccc2occc12)[C@@H]1CCCC[C@H]1N1CCC(COC(=O)CCC(=O)OCC2CCN([C@H]3CCCC[C@@H]3N(C)C(=O)Cc3cccc4occc34)C2)C1` (stereo partly drawn), the figures for the Ki (in assay [1]; on Mu-type opioid receptor [2]) were 180 nM and 800 nM, respectively.
